Experimental data taken from ChEMBL document CHEMBL1921679, “Synthesis and biological evaluation of novel pyrimidine derivatives as sub-micromolar affinity ligands of GalR2” (Bioorg Med Chem Lett, 2011).

How the values were obtained:
[1] = biological target: T1, Galanin receptor type 2 (Homo sapiens) (UniProt O43603); assay: Displacement of [125I]galanin from GalR2 at 1 uM by gamma counting
T1 sequence (whole entry): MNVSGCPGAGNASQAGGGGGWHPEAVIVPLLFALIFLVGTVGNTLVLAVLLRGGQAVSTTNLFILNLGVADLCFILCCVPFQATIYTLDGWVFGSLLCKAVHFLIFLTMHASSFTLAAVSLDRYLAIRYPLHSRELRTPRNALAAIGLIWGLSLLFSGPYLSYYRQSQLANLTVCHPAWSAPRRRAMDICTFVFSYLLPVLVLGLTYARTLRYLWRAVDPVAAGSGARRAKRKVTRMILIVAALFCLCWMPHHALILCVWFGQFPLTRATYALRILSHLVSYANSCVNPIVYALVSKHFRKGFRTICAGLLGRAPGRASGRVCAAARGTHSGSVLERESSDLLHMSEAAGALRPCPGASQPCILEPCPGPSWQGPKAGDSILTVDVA
Summary of the method: (§1)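 Single-point screen at 1 and 10 μM, in duplicate, with two screens per receptor. Final 125I porcine galanin was 0.1 nM (GalR1) or 0.15 nM (GalR2). Incubation 1 h, room temperature. Filtration through PEI-treated glass fibre, cold PBS/Triton washes, γ-counting.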

[2] = biological target: T1, Galanin receptor type 2 (Homo sapiens); assay: Displacement of [125I]galanin from GalR2 at 10 uM by gamma counting; summary of the method: as §1

Row | inhibition [1] [%] | inhibition [2] [%] | Compound
1 | > 50 | > 50 | COc1ccc(Nc2nc(Nc3ccc(OC)c(F)c3)cc(N3CCC(N4CCCCC4)CC3)n2)cc1
2 | > 50 | > 50 | COc1ccc(Nc2nc(Nc3ccc(OC)c(F)c3)cc(N3CCC(C)CC3)n2)cc1
3 | > 50 | > 50 | COc1ccc(Nc2nc(Nc3ccc(OC)c(F)c3)cc(N3CCCCC3C)n2)cc1 (centres undefined)
4 | > 50 | > 50 | FC(F)(F)Oc1ccc(Nc2cc(Nc3ccccc3)nc(N3CCCCC3)n2)cc1
5 | > 50 | > 50 | COc1ccc(Nc2nc(Nc3ccc(OC)c(F)c3)cc(N3CCCC3)n2)cc1
6 | > 50 | > 50 | COc1ccc(Nc2nc(Nc3ccc(OC)c(F)c3)cc(N3CCN(c4ncccn4)CC3)n2)cc1
7 | > 50 | > 50 | COc1ccc(Nc2nc(Nc3ccc(OC(F)F)cc3)cc(N3CCCCC3)n2)cc1
